Screens as filed in PubChem.
miR-21 reporter = raises the signal of a miR-21 reporter; 340,000 tested, under 10 active; HeLa miR-21 FLuc reporter, luciferase, 48 h; Potency, µM (highest dose often 38.3 µM); active = well fitted rising curve with a large enough effect; inconclusive = small, poorly fitted or top-dose-only effect; inactive = no such curve, though single readings can be large or run the other way;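 also: miR-21 action dims this reporter so a rising signal means less miR-21 action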
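Using DMEM plus 10% FBS, HeLa miR-21-FLuc cells are incubated with test compounds (final up to about 40uM) for 48 hours; firefly luciferase signal is then imaged following reagent-mediated lysis.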
Mito fusion act = mitochondrial division inhibition or fusion activation | S. cerevisiae fusion-defective mutant growth rescue, CellTiterGlo 48 h | Potency, µM (highest dose often 46.1 µM), usual class: activators | hit rate 0.23% among 320,000; also: nearly all actives have a fitted effect of over 45% in size
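Growth-rescue viability read-out: after 48 h at the non-permissive 37C in glycerol/ethanol YPEG, yeast mitochondrial fusion mutants are measured by CellTiterGlo luminescence; compounds (23 nl pinned per well) restoring growth score as division inhibitors or fusion activators.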
Nrf2 block = blocks Nrf2 signaling; A549 ARE-Fluc reporter, luciferase luminescence, 18-24 h; Potency, µM (series often up to 46 µM), most hits filed as inhibitors; hit rate 2.1% among 360,000; AID 504444; also: nearly all actives have a fitted effect of over 60% in size
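Two sequential reads on A549 ARE_Fluc cells exposed to compound for 18-24 h: a CellTiter-Fluor fluorescence read for viability, then a luciferase luminescence read for Nrf2/ARE activity.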
A549 tox = kills or reduces viability of A549 cells in Nrf2 counter-screen | A549 ARE-Fluc cells, CellTiter-Fluor viability, 18-24 h | Potency, µM (titrated, usually from 46 µM), hits mostly inhibitors | hit rate 0.16% among 390,000 | AID 504648
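Cytotoxicity counterscreen: CellTiter-Fluor fluorescence was measured in A549 ARE_Fluc cells after 18-24 h of compound exposure in a concentration series. The subsequent BugLite luminescent read reports ARE-luciferase activity.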
Nrf2 activator = Nrf2 pathway activation; hit rate 0.31% among 410,000; AREc32 ARE-luciferase reporter (MCF7-derived line), luminescence, 24 h; AID 624171; Potency, µM (top dose mostly 46.1 µM), hits mostly activators; also: nearly all actives have a fitted effect of over 65% in size
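ARE activation measured as luciferase luminescence (Steady-Glo, 30 min RT) in AREc32_Fluc cells after 24 hr compound exposure at 37 deg C, 5% CO2; cells seeded overnight at 1000/well in OPTI-MEM, 5% FBS.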
Glioma ERSR ind = inducers of ER stress response in human glioma cells; U87-MG GRP78 promoter luciferase reporter, 16 h; Potency, µM, hits mostly activators; hit rate 0.02% among 420,000; AID 602332; also: series mostly up to about 76 µM; nearly all actives have a fitted effect of over 35% in size
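Stably transfected U87-MG glioma cells carrying a GRP78-based luciferase sensor; 16 h compound incubation. Luminescence end-point read 10 min after Bright-Glo addition at room temperature.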
Large screens that a line does not name were inactive. Most compounds without a hit are left out; they make up all but 2.3% or so of the library. Unless noted, calls follow the shape of the dose curve; as a rule, active = well fitted curve in the direction sought with a large enough effect; inconclusive = small, poorly fitted or top-dose-only effect, or another doubt; inactive = no such curve, though single readings can be large; an effect the other way counts as inactive or inconclusive.

O=C(COc1ccc(F)cc1)Nc1ccc2nc(SCC(=O)N3CCc4ccccc43)sc2c1	none (no result: Mito fusion act)
C=CCn1cc(C(=O)NCc2ccco2)c(=O)c2cc(S(=O)(=O)N3CCCCCC3)ccc21	Nrf2 block 12µM
Cc1cc(-c2ccccc2)nc(N2CCC(C(=O)NCc3ccccc3Cl)CC2)n1	none (no result: Nrf2 block, A549 tox, Nrf2 activator, Glioma ERSR ind)
O=C(OCc1ccc(Br)cc1)c1ccncc1	none
CC(=O)Nc1ccc(C(=O)OCc2ccc(Br)cc2)cc1	Mito fusion act 16µM
COc1cc2c(cc1OC)-c1cc(NC3CCCC3)nc(=O)n1CC2	none
COc1cc2c(cc1OC)-c1cc(=Nc3c(C)cc(C)cc3C)n(C)c(=O)n1CC2	Mito fusion act 18µM, Nrf2 block inconclusive (no result: miR-21 reporter, Nrf2 activator)
COc1ccc(C(=O)OC(C)C(=O)NC(C)CCc2ccccc2)c(OC)c1 (configuration not stated)	Mito fusion act 11µM
COc1ccc(C(=O)OC(C)C(=O)NC(C)CCc2ccccc2)cc1[N+](=O)[O-] (configuration not stated)	none
CCOc1ccc(C(=O)CC(Sc2ccc(C)cc2)C(=O)O)cc1 (configuration not stated)	Nrf2 activator 18µM
COc1ccc(-n2cc(C(=O)NCCc3ccc(C)cc3)c3ccccc3c2=O)cc1	Nrf2 block 18µM (no result: Mito fusion act)
COc1ccc(CCNC(=O)c2coc3ccccc3c2=O)cc1	Nrf2 block 13µM
COc1cccc(-n2cc(C(=O)NCCc3ccc(C)cc3)c3ccccc3c2=O)c1	none (no result: Mito fusion act)
CC(=O)c1c(C(C)=O)c(C)n(-c2nc(-c3ccc(C)c(C)c3)c(C)s2)c1C	Nrf2 block 13µM
C/C(CCN1CCc2nc(-c3ccccc3)c(-c3ccccc3)cc2C1)=N\OC[C@@H](O)[C@@H]1O[C@@H]2OC(C)(C)O[C@@H]2[C@H]1O	none (no result: miR-21 reporter, Mito fusion act, Nrf2 block, A549 tox, Nrf2 activator)
CC(C)c1ccc2[nH]c(O)c(N=NC(=O)c3cccc(S(=O)(=O)N4CCCCC4)c3)c2c1	Nrf2 block 18µM, A549 tox inconclusive
COc1ccc(CCC(=O)Nc2ccc(C)c(S(=O)(=O)N(C)C)c2)cc1OC	Nrf2 block 13µM
COc1ccc(CCNCC(=O)Nc2ccc(C)c(S(=O)(=O)N(C)C)c2)cc1	none
COc1ccc(NS(=O)(=O)c2ccc(C)c(C(=O)N(C)Cc3ccc(C)cc3)c2)cc1	Nrf2 block inconclusive (no result: miR-21 reporter)
COc1ccc(NS(=O)(=O)c2ccc(C)c(C(=O)N(C)CCc3ccc(OC)c(OC)c3)c2)cc1	Nrf2 block 21µM (no result: miR-21 reporter)
COc1cc(CCC(=O)Nc2ccc(C)c(S(=O)(=O)N(C)C)c2)cc(OC)c1OC	Nrf2 block 23µM
C[C@@H]1CN([C@@H](C)CO)C(=O)CCCn2nncc2CO[C@@H]1CN(C)S(=O)(=O)c1ccccc1C#N	none (no result: miR-21 reporter, Mito fusion act, Nrf2 block, A549 tox)
Oc1ccc(-c2nccc(-c3cccs3)n2)cc1	Nrf2 block inconclusive, Nrf2 activator 10µM
CCOc1ccccc1Nc1nnc(SCc2nnc(-c3cc(OC)c(OC)c(OC)c3)o2)s1	Nrf2 block 16µM, A549 tox inconclusive
CC(C)C(=O)N1CCN(c2nc(-c3ccccc3)c3c(c2C#N)CCCC3)CC1	Nrf2 block 12µM, A549 tox inconclusive
CC(C)Cc1nc(N2CCN(C(=O)c3ccco3)CC2)c(C#N)c2c1CCCC2	Nrf2 block inconclusive, A549 tox inconclusive
Clc1ccccc1CSc1nncn1NC/C=C/c1ccccc1	Mito fusion act 22µM
CC1CCCN(C(=O)CCS(=O)(=O)c2cc3c(cc2Cl)NC(=O)CO3)C1 (configuration not stated)	none
CC(C)OC(=O)CNc1n[nH]c(=S)[nH]c1=O	none
O=C(Nc1ccc2c(c1)OCO2)N1CCN(c2ncc(C(F)(F)F)cc2Cl)CC1	Nrf2 block 9.2µM
Cc1ccc(-c2nc3n(n2)Cc2ccccc2-3)cc1	Nrf2 block inconclusive
CCn1c(C)nc2cc(-c3nc4n(n3)Cc3ccccc3-4)ccc21	miR-21 reporter inconclusive, Nrf2 block 2.3µM
O=C(Nc1ccc(Oc2ccccc2)nc1)C1CCN(Cc2cccc(F)c2)CC1	Nrf2 block 18µM, A549 tox inconclusive
O=C(Nc1ccc(Oc2ccccc2)nc1)C1CCN(Cc2ccco2)CC1	none
C#Cc1ccc(CN2CCC(C(=O)Nc3ccc(Oc4ccccc4)nc3)CC2)cc1	Nrf2 block 18µM, A549 tox inconclusive
CCc1ccc(OCC2c3cc(OC)c(OC)cc3CCN2C(=S)NCCOC)cc1 (configuration not stated)	none
N#CC1=C(NC=NCc2ccccc2)Oc2ccc3ccccc3c2C1c1ccccc1 (configuration not stated)	Nrf2 block 18µM (no result: miR-21 reporter, Mito fusion act, Nrf2 activator, Glioma ERSR ind)
CCOc1ccc2nc(NCCCNS(=O)(=O)c3ccc(F)cc3)c(C#N)cc2c1	none (no result: miR-21 reporter, Mito fusion act)
CCOC(=O)c1oc2ccc(S(=O)(=O)n3nc(-c4ccc(OC)cc4)cc3N)cc2c1C	Mito fusion act 13µM, Nrf2 block inconclusive
CCOC(=O)c1oc2ccc(S(=O)(=O)n3nc(-c4ccccc4)cc3N)cc2c1C	Nrf2 block inconclusive
O=C(C1CCN(S(=O)(=O)N2CCOCC2)CC1)N1CCN(c2ccc(F)cc2)CC1	Mito fusion act 35µM
COc1ccc(N2CCN(C(=O)C3CCN(S(=O)(=O)N4CCOCC4)CC3)CC2)cc1	none
COc1cccc(-n2c(SCc3ccccn3)nc3c(c2=O)SCC3)c1	Nrf2 block 1.8µM
COc1ccc(-n2c(SCc3cccnc3)nc3c(c2=O)SCC3)cc1OC	Nrf2 block inconclusive
CCCCN(C)C(=O)c1ccc2c(c1)N(CC)C(=O)c1ccccc1S2=O (configuration not stated)	none
Nc1cc(-c2ccc(Br)cc2)nn1Cc1ccccc1	Nrf2 block 10µM
CCCCOc1ccc(CNC(=O)CCCN2C(=O)CSc3c2c(C)nn3-c2ccccc2)cc1	Nrf2 block 29µM (no result: Mito fusion act)
Cc1nn(-c2ccccc2)c2c1N(CCCC(=O)NCc1ccccc1)C(=O)CS2	Nrf2 block inconclusive (no result: Mito fusion act)
O=C1c2ccc(Br)cc2C(=O)N1c1ccc(Cc2ccncc2)cc1	Nrf2 block 21µM
CC1(C)CC(=O)C=C(Nc2ccccc2NC(=O)c2cnccn2)C1	none
CSc1cccc(Nc2ccc(S(=O)(=O)N3CCOCC3)cc2[N+](=O)[O-])c1	Nrf2 block 18µM (no result: miR-21 reporter)
Cc1cccc(Nc2ccc(S(=O)(=O)N3CCOCC3)cc2[N+](=O)[O-])c1	none (no result: miR-21 reporter)
COc1ccc(Cl)cc1C(=O)O/N=C(\N)c1ccncc1	Nrf2 block inconclusive, Nrf2 activator 4µM
Cc1nc(-c2cccc(NC(=O)c3cccs3)c2)cs1	Nrf2 activator inconclusive
Cc1nc(-c2cccc(NC(=O)c3ccc(Br)o3)c2)cs1	none
